Results reported in PMC10700596 (Nature Communications, 2023).
Several values for one entry are separate records, joined by “and”; a condition that tells them apart may be missing. Equal entries are not always repeated. Where two headings read alike, the source gives them in different places.

The chains behind the UniProt entries cited, without tags or fusion partners.
UniProt P35408, whole entry: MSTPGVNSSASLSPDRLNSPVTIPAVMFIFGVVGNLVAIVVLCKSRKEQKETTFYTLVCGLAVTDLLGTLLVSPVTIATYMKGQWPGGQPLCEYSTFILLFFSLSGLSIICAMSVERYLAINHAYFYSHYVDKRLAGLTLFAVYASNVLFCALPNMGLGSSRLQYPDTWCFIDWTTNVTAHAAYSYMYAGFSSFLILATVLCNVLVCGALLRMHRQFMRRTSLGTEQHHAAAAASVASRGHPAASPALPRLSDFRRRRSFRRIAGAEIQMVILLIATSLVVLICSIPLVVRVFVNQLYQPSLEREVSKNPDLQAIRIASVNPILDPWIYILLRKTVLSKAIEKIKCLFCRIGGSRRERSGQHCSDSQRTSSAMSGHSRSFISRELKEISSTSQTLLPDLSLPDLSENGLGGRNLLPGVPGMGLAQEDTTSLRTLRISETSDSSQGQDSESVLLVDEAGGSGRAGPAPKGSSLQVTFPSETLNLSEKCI

What was measured:
[1] = target: T1, EP4R (Homo sapiens, UniProt P35408); test: EP4R functional cyclic AMP production assay (Eurofins item 1872); settings: for Kb: read-out: cAMP Assay KB; for cAMP assay response: technical replicates
[2] = target: wild-type EP4R (Homo sapiens, UniProt P35408); test: BRET β-arrestin2 recruitment assay, wild-type EP4R; settings: for IC50: read-out: Arrestin-BRET IC50; for Ki: read-out: Arrestin-BRET Ki*, calculated using the Cheng Prusoff equation
[3] = target: T1, EP4R; test: PRESTO-Tango β-arrestin2 recruitment assay; settings: for IC50: read-out: PRESTO-Tango IC50; for Ki: read-out: PRESTO-Tango Ki*, calculated using the Cheng Prusoff equation
[4] = target: T1, EP4R; test: Radioligand (3H-PGE2) displacement assay at EP4R; assay type: binding; settings: for Binding assay - 3H-PGE2 displacment, EP4R: replicate values; for Ki: read-out: Radiologand displacement Ki, 3H-PGE2
[5] = Pharmacokinetics in CD-1 mice (plasma, brain, CSF); settings: IP 10 mg/kg; for Plasma concentration C (mean): mean of 3 animals; for Final plasma concentration, individual sample: single animal
[6] = against 30 nM PGE2, Cheng-Prusoff equation

## C[C@H](NC(=O)c1cc(Cl)ccc1Oc1ccc(F)cc1)c1ccc(C(=O)O)cc1
[1]
  potency at EP4R relative to 77: approximately five-fold higher potency
  Kb: 2.9 nM

## Cc1cc(C(=O)N[C@@H]2CC[C@@H](C(=O)O)CCC2(F)F)c(C)n1-c1ccccc1 [79]
[2]
  Arrestin-BRET -logIC50: 6.78
  IC50: 159 nM
  Ki: 31.8 nM
[3]
  PRESTO-Tango -logIC50: 5.31
  IC50: 4940 nM
  Ki: 989 nM
[4]; Log[Drug] -11.00
  Binding assay - 3H-PGE2 displacment, EP4R: 108.685
[4]
  Ki: 926 nM
[1]; compound 1e-6 M
  cAMP assay response: 23.6 and 26.2
[1]; compound 1e-5 M
  cAMP assay response: 77.5 and 62.4
[1]; [6]
  Kb: 300 nM

## Cc1cc(C(=O)N[C@@H]2CC[C@@H](C(=O)O)CCC2(F)F)c(C)n1-c1ccccc1 [82]
[2]
  Arrestin-BRET -logIC50: 6.66
  IC50: 220 nM
  Ki: 44 nM
[3]
  PRESTO-Tango -logIC50: 5.11
  IC50: 7680 nM
  Ki: 1540 nM
[4]; Log[Drug] -6.00
  Binding assay - 3H-PGE2 displacment, EP4R: 59.5849
[4]; Log[Drug] -9.00
  Binding assay - 3H-PGE2 displacment, EP4R: 90.3175
[4]; Log[Drug] -10.00
  Binding assay - 3H-PGE2 displacment, EP4R: 100.146 and 103.649
[4]; Log[Drug] -11.00
  Binding assay - 3H-PGE2 displacment, EP4R: 105.004 and 113.288
[4]
  Ki: 457 nM
[1]; compound 1e-6 M
  cAMP assay response: 43.7
[1]; compound 1e-5 M
  cAMP assay response: 79 and 81.9
[1]; [6]
  Kb: 150 nM
[5]; 5 min
  Plasma concentration C (mean): 716 ng/mL
[5]; 5 min, D=1, listed as Z4989072931, 10 mg/kg
  Final plasma concentration, individual sample: 823 ng/mL and 643 ng/mL and 683 ng/mL
[5]; 15 min
  Plasma concentration C (mean): 3263 ng/mL
[5]; 15 min, D=1, listed as Z4989072931, 10 mg/kg
  Final plasma concentration, individual sample: 3520 ng/mL and 3784 ng/mL and 2486 ng/mL
[5]; 30 min
  Plasma concentration C (mean): 4161 ng/mL
[5]; 30 min, D=1, listed as Z4989072931, 10 mg/kg
  Final plasma concentration, individual sample: 3820 ng/mL and 4633 ng/mL and 4029 ng/mL
[5]; 60 min
  Plasma concentration C (mean): 4644 ng/mL
[5]; 60 min, D=1, listed as Z4989072931, 10 mg/kg
  Final plasma concentration, individual sample: 4302 ng/mL and 3865 ng/mL and 5766 ng/mL
[5]; 120 min
  Plasma concentration C (mean): 1783 ng/mL
[5]; 120 min, D=1, listed as Z4989072931, 10 mg/kg
  Final plasma concentration, individual sample: 1377 ng/mL and 1848 ng/mL and 2124 ng/mL
[5]; 240 min
  Plasma concentration C (mean): 232 ng/mL
[5]; 240 min, D=1, listed as Z4989072931, 10 mg/kg
  Final plasma concentration, individual sample: 188 ng/mL and 310 ng/mL and 199 ng/mL
[5]; 360 min
  Plasma concentration C (mean): 61.9 ng/mL
[5]; 360 min, D=1, listed as Z4989072931, 10 mg/kg
  Final plasma concentration, individual sample: 57.2 ng/mL and 54.1 ng/mL and 74.4 ng/mL
[5]; 480 min
  Plasma concentration C (mean): 41.3 ng/mL
[5]; […]
  Plasma concentration C (mean): 0 ng/mL
[5]; […], D=1
  Final plasma concentration, individual sample: 0 ng/mL
